# Binding of CDR-mutated scFvs to a peptide of the spike HR2 region

The measurements come from Engelhart et al. 2022 (doi:10.1038/s41597-022-01779-4) through the FLAb antibody collection.

Antigen: PDVDLGDISGINAS, a 14-residue peptide of the SARS-CoV-2 spike HR2 region.

Parent: Ab-95, a human scFv built as VH, three GGGGS repeats, VL. Only the CDRs of the light chain vary.
VH: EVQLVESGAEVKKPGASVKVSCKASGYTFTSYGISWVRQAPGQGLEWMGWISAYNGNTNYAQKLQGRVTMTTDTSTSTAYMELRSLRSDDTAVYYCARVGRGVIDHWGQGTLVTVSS
VL: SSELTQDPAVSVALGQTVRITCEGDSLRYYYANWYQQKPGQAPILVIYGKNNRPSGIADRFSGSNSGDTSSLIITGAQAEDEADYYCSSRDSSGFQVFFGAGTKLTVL

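Phage display of a naive human antibody library on the peptide gave the parent. AAYL52 was designed without a model: most single CDR substitutions and a random sample of double and triple ones. AlphaSeq pools MATa yeast showing the antibodies with MATalpha yeast showing the peptide. The frequency of each diploid, read from paired DNA barcodes, reflects how well the two displayed proteins bind. Read counts were normalised to the haploid input and turned into Kd by a linear fit to BCL2-family pairs of known affinity, for each replicate. Each pool was mated in three replicate cultures.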

Positions count from residue 1 of the parent VL; G49A puts A in place of G. Affinities are written as log10 Kd with Kd in nM; a lower number is a better binder. Averages over replicates are reported, and they cover detected replicates only. "ND" means that the variant was in the library but no mating with the target was seen in that replicate; the authors take this as a sign of poor binding, and no number exists. Background: pairings of library AAYL52 with three empty control strains gave a value in 28% of cases (median 3.91, 5th percentile 2.90). Values in that range, when seen in few replicates, are hard to tell from nonspecific mating. The control count says in how many pairings with the empty strains this scFv gave a signal, with their mean in brackets. Parent in this assay: reference entry 2.31, copy in this library 2.25.

changes	log10 Kd (nM) by replicate	mean log10 Kd (nM)	control signals
G49A+N51Y+F98Y	ND ND ND	ND	1 of 9 (4.03)
G24L+Y31C+F98K	ND 5.20 3.58	4.39	3 of 9 (4.21)
G94M	2.62 2.36 2.26	2.41	2 of 9 (4.22)
D25F+L27V+S92M	3.75 3.58 2.91	3.41	5 of 9 (3.67)
Y30V+A32E+N51Q	2.60 2.93 2.44	2.66	3 of 9 (3.42)
G24D	2.97 3.40 3.06	3.14	2 of 9 (3.94)
G49Q+Q96S	4.21 ND 3.04	3.62	4 of 9 (4.34)
G94P	2.38 2.10 2.59	2.35	5 of 9 (4.19)
Y30E+K50C+S55T	4.55 ND ND	4.55	0 of 9
E23F+L27T+A32E	4.38 4.64 ND	4.51	6 of 9 (4.38)
A32S+N51C+F95M	4.20 5.21 3.13	4.18	4 of 9 (4.37)
R53L+R90S+Q96V	3.84 3.11 2.67	3.21	1 of 9 (3.62)
Y31R+N33R+G94A	ND 2.96 ND	2.96	1 of 9 (4.47)
N33S+G94P+V97Y	2.99 ND ND	2.99	3 of 9 (4.16)
S26N+N51Y+S92C	3.00 ND ND	3.00	5 of 9 (4.20)
S88A+S89I+Q96H	3.67 4.97 ND	4.32	1 of 9 (2.79)
E23Q+Y30P+G49L	3.17 2.64 ND	2.91	2 of 9 (3.54)
P54Q+F95K	3.45 ND ND	3.45	0 of 9
S92K+F95L+F98A	ND ND ND	ND	0 of 9
E23F+G49F+S92T	ND 4.71 ND	4.71	4 of 9 (4.10)
Y31W+F95T+Q96W	3.38 2.83 3.92	3.38	7 of 9 (4.10)
D25Y+Y30N+F95C	1.50 1.63 1.09	1.41	2 of 9 (4.12)
P54F+F95A+Q96M	3.39 ND ND	3.39	1 of 9 (5.61)
G24L+S92Q+G94E	ND ND ND	ND	0 of 9
E23V+L27Y+G94D	5.76 4.64 4.15	4.85	3 of 9 (4.26)
Y31I+S55K	2.95 2.61 3.17	2.91	2 of 9 (3.84)
A32I+N52Q+R53P	2.96 3.43 3.15	3.18	3 of 9 (3.95)
L27V+P54N+S88K	ND 4.06 ND	4.06	1 of 9 (4.67)
L27S+Y30W+S89K	3.76 3.53 4.66	3.98	2 of 9 (4.36)
D25G+S26T+Q96E	ND 2.81 ND	2.81	2 of 9 (3.33)

Extract of 5 entries:

changes	log10 Kd (nM) by replicate	mean log10 Kd (nM)	control signals
R53L+R90S+Q96V	3.84 3.11 2.67	3.21	1 of 9 (3.62)
G94M	2.62 2.36 2.26	2.41	2 of 9 (4.22)
P54F+F95A+Q96M	3.39 ND ND	3.39	1 of 9 (5.61)
Y31W+F95T+Q96W	3.38 2.83 3.92	3.38	7 of 9 (4.10)
L27V+P54N+S88K	ND 4.06 ND	4.06	1 of 9 (4.67)